## AlphaSeq binding of Ab-14 heavy chain variants to a spike HR2 peptide

The target is the same throughout: PDVDLGDISGINAS, from the HR2 region of SARS-CoV-2 spike.

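The parent was found by panning a naive human phage display library on the peptide. These sequences belong to a second round, designed from the earlier measurements on random variants of the parent. Group labels follow the data file (Ctrl: baseline library sampled from a position-specific scoring matrix, with some repeated check sequences; Rand: our label for a block that the file lists under HC and that is probably the random mutants of the ten best first-round binders; En: ensemble of fine-tuned language models; GP: Gaussian process model; GPLM: also part of the Gaussian process libraries; HC: hill climbing; Gen: genetic algorithm; Gibbs: Gibbs sampling; a sequence that several methods proposed may carry one label only). In AlphaSeq, yeast of one mating type display the scFv and yeast of the other type display the target. Pairs that bind mate more often; barcode pairs of the diploids are counted by sequencing. Scores were corrected for input abundance and mapped to Kd with protein pairs of known affinity run in the same pool. The assay was run in six technical replicates.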

Ab-14 is the parent antibody, in scFv form: VH, then a 15-residue (Gly4Ser)3 linker, then VL. The light chain is unchanged in all variants.
VH: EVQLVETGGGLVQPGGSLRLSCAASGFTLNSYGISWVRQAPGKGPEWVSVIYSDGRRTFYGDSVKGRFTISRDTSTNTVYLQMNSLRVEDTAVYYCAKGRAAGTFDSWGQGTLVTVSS
VL: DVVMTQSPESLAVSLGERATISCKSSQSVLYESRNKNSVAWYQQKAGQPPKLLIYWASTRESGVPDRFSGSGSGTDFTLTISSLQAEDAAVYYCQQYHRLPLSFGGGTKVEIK

Each variant is given by its three heavy chain CDRs, as the data file delimits them; those of the parent are GFTLNSYGIS, VIYSDGRRTFYGDSVK, GRAAGTFDS.
Each Kd is an estimate from the mating assay, the geometric mean of the replicates in which the pair was seen; lower is stronger.
A pair that was not seen in any replicate is written "not detected"; this usually means weak binding, but a binder can also be missed.
The authors averaged sequences with at least three values out of six and counted those with two or fewer as poor binders.
As a blank, each scFv also met three strains without target: over all heavy chain designs, 1% of these pairings were detected, typically at 120 nM and seldom below 7.0 nM.
The range of this assay differs from that of the first round, and the authors advise against merging the two.

CDR-H1	CDR-H2	CDR-H3	group	Kd	detected
GFTLNEYGIS	VIYSDGRRTFYGDSVK	GWVAGTFDT	GP_Gibbs	1.3 nM	6 of 6
GFDLNSYGIS	VIYSDGRRTFYTDSVK	GQTAGTFDS	GPLM_Gen	2.6 nM	6 of 6
GFDLNSYGIS	VIYSDGRRTFYQDSVK	GWTAGTFDS	GP_Gen	1.5 nM	6 of 6
GFTLDSYGIS	VIYFDGRRTFYGDSVK	GRAAGTALM	Rand	not detected	0 of 6
GFNLNEYGIS	VIYADGVRTAYADSVK	GNVAGTFDV	En_Gen	170 pM	6 of 6
GFDIDEYGVS	VIYADGFREAYAESVK	GLIQTGITV	En_Gibbs	18 µM	1 of 6
GFDLNEYGIS	VIYADGRRTAYSDSVK	GNAGGTFDS	En_HC	1.9 nM	6 of 6
GFDLEEYGIS	VIYADGRRTFYSDSVK	GETAGTFDS	En_HC	400 pM	6 of 6
GFTLNSYGIS	VIYSDGRRTFYGDSVK	GREAGHFDS	Ctrl	890 nM	4 of 6
GFTLNGYGIS	VIYSSGARTFQGDSVK	GRAALTFIS	Rand	not detected	0 of 6
GDGLDEYGIS	VIYADGMRSSYSNDVK	GTNFGNKMV	En_Gibbs	not detected	0 of 6
GKHLNEFGIS	VIYADGLRMHYANSVK	GEMAGTFTT	En_Gibbs	not detected	0 of 6
GFEIQEFGIS	VIYADGFRTAYAENVK	GTLAGTFTT	En_Gibbs	4.6 nM	6 of 6
DFTLNSYGIS	VIYSDGRRTFYGDSVK	GRAKGTFDS	Ctrl	not detected	0 of 6
GFSLNSYGIS	VIYSDGRRTFYGDSVK	GRTAGTFDD	GPLM_Gen	3.1 nM	6 of 6
GFTLNSYGIS	WIYSDGRRTFYGDSVK	GRAAGTFDS	Ctrl	not detected	0 of 6
GFDLDEYGIS	VIYADGMRTAYADDVK	GEVAGTFDM	En_Gen	810 pM	6 of 6
GFTLNEYGIS	VIYADGRRTFYGDSFK	GRAAGTFNS	Ctrl	1.6 nM	6 of 6
GFDLNEYGIS	VIYADGRRTFYADSVK	GEFAGTFDQ	En_HC	3.9 nM	6 of 6
GFSLNSYGIS	VIYSDGRRTFYGDSVK	GQTAGTFDR	GPLM_Gen	9.3 nM	5 of 6
GFTLEMYGIS	VIYSDGRRTFYGDSVK	GRAAGTFTS	GP_HC	not detected	0 of 6
GFTLEEYGIS	VIYSDGRRTFYGDSVK	GRVAGTFDS	Ctrl	not detected	0 of 6
GFTFNDYGIS	VIYSDGRRTQYIDSVK	GRAAGTFDS	Rand	420 nM	5 of 6
GFGLDEYGIS	VIYADGMRSAYANSVK	GSHAGGIVW	En_Gibbs	not detected	0 of 6
GFNLNTYGIS	VIYSDGRRTFYGDSVK	GQAAGTFDS	GPLM_Gibbs	9.1 nM	6 of 6
GFSLNEYGIS	VIYSDGRRTFYEDSVK	GRAGGTFDS	GP_HC	22 nM	6 of 6
GFDLNSYGIS	VIYSDGKRTFYADSVK	GRMAGTFDS	GP_Gibbs	1.2 nM	6 of 6
GFDLDEYGIS	VIYADGKRTFYADSVK	GNQAGTFDV	En_Gen	340 pM	6 of 6
GFDIDEYGIS	VIYADGMRTFYTDSVK	GEEAGTFDA	En_HC	230 pM	6 of 6

Continued, with the values leading:

Kd	detected	CDR-H1	CDR-H2	CDR-H3	group
1.4 nM	6 of 6	GFELNSYGIS	VIYSDGRRTFYSDSVK	GKEAGTFDT	GP_Gibbs
not detected	0 of 6	GFNLDEYGIS	VIYADGSRQFYVNTFK	GKDVGLNVM	En_Gibbs
not detected	0 of 6	GFSLNEYGIS	VIYADGIRQHYSDKVK	GVVFGNVLF	En_Gibbs
5.7 nM	6 of 6	GFNLNEYGIS	VIYADGVRTFYSDSVK	GEAGGTFDV	En_HC
160 nM	1 of 6	GFDFNEYGIS	VIYADGKRTAYADKFK	GGKNAFTDI	En_Gibbs
510 pM	6 of 6	GFDIDEYGIS	VIYADGKRTFYADSVK	GTNAGTFDV	En_HC
320 pM	6 of 6	GFDLDEYGIS	VIYADGMRTAYTDSVK	GNVAGTFDQ	En_Gen
not detected	0 of 6	GFTLNEYGIS	VIYSDGRRTFYGDSVK	GKAAGTFDC	GP_HC
2.7 nM	6 of 6	GFTLNSYGIS	VIYADGRRTFYGDSVK	GRAAGTFKL	GPLM_HC
36 nM	6 of 6	GFTLNEYGIS	VIYFDGRRTFYTDSVK	GRFAGTFDS	Rand
210 nM	6 of 6	GFWLNEYGIS	VIYSDGRRTFYIDSVK	GRTAGTFDS	GPLM_Gen
not detected	0 of 6	GFTLNSYGIT	VIYSDGRRTFYGDSVK	GRLAGTFDS	Ctrl
20 nM	3 of 6	GFTLNEYGIS	VIYSDGRRTFYGDSVK	GRAAGTFCK	GP_HC
780 pM	6 of 6	GFDLDEYGIS	VIYADGQRTAYADDVK	GGNAGTFDV	En_Gen
11 nM	6 of 6	GFSLNSYGIS	VIYSDGRRTFYGDSVK	GHAAGTFDQ	GP_Gen
4.9 nM	5 of 6	GFDLNSYGIS	VIYSDGRRTFYIDSVK	GKIAGTFDS	GP_Gibbs
not detected	0 of 6	GFNLDEVGIS	VIYADGSRVAYVDNVK	GTVDAVDFV	En_Gibbs
120 pM	6 of 6	GFDLNEYGIS	VIYADGMRTAYSDSVK	GNTAGTFDT	En_Gen
59 nM	3 of 6	GFTLESYGIS	VIYSDGRRTFYGDSVK	GQAAGTFDK	GP_Gen
52 nM	6 of 6	GFTLNSYGIS	VIYSDGRRTAYSDSVK	GRAGGTFDS	GPLM_HC
not detected	0 of 6	GFKLNSYGIS	VIYSDGRRTFYGDSVK	GRAAGTDDS	Ctrl
not detected	0 of 6	GFTLNSYGIS	VIYSDGRRTFYGDNVK	GRGAGTFIS	Ctrl
22 nM	3 of 6	GFSLNEYGIS	VIYSDGRRTFYGDDVK	GEAAGTFDK	GP_Gibbs
47 pM	2 of 6	GFSLNSYGIS	VIYSDGRRTFYTDSVK	GKVAGTFDS	GP_Gen
not detected	0 of 6	VFTLNSYGIS	VIYADGRRTAYGDSYK	GRAAGTFDS	Ctrl
63 nM	5 of 6	GFSLNSYGIS	VIYSDGRRTFYIDSVK	GHAAGTFDD	GPLM_Gibbs
440 pM	6 of 6	GFDLDEYGIS	VIYADGKRTAYADNVK	GNVAGTFDV	En_Gen
not detected	0 of 6	GFTLNSYGIS	VIYSDGKRTFYGDAVK	GRTAGTFWS	GP_Gibbs
not detected	0 of 6	GFTIDRYGAS	VIYSDGRRTFYFDSWK	GRAAGTALS	Rand
not detected	0 of 6	GADIQEYGIS	VIYADGIRTAYAQNVK	GEYGSQFDI	En_Gibbs

The first 5 entries again:

{"CDR-H1": "GFTLNEYGIS", "CDR-H2": "VIYSDGRRTFYGDSVK", "CDR-H3": "GWVAGTFDT", "group": "GP_Gibbs", "Kd": "1.3 nM", "detected": "6 of 6"}
{"CDR-H1": "GFDLNSYGIS", "CDR-H2": "VIYSDGRRTFYTDSVK", "CDR-H3": "GQTAGTFDS", "group": "GPLM_Gen", "Kd": "2.6 nM", "detected": "6 of 6"}
{"CDR-H1": "GFDLNSYGIS", "CDR-H2": "VIYSDGRRTFYQDSVK", "CDR-H3": "GWTAGTFDS", "group": "GP_Gen", "Kd": "1.5 nM", "detected": "6 of 6"}
{"CDR-H1": "GFTLDSYGIS", "CDR-H2": "VIYFDGRRTFYGDSVK", "CDR-H3": "GRAAGTALM", "group": "Rand", "Kd": "not detected", "detected": "0 of 6"}
{"CDR-H1": "GFNLNEYGIS", "CDR-H2": "VIYADGVRTAYADSVK", "CDR-H3": "GNVAGTFDV", "group": "En_Gen", "Kd": "170 pM", "detected": "6 of 6"}

The measurements come from Li et al. 2023 (doi:10.1038/s41467-023-39022-2) through the FLAb antibody collection.